Source: patent publication US8153787B2 (priority 2005, dated 2012)

Legend:
[1] = system: murine polyomavirus; format: cell-based
[2] = system: primate polyomavirus (SV40); format: cell-based, simian polyomavirus SV40

SMILES | selectivity index 2PTA2 [1] | selectivity index LID-1 [1] | selectivity index MN/RDE Toronto [1] | selectivity index PTA [1] | selectivity index SV40 PML-1 strain EK [2] | selectivity index SV40 PML-2 strain DAR [2] | selectivity index SV40 strain A2895 [2]
Nc1ccn(C[C@@H](CO)OCP(=O)(O)O)c(=O)n1 [HPMPC, (S)-1-(3-hydroxy-2-phosphonylmethoxypropyl)cytosine, reference compound] | 15 | 14 | 31 | 13 | 14 | 14 | 17
Nc1ncn(C[C@@H](CO)OCP(=O)(O)O)c(=O)n1 [Compound 3, (S)-1-[3-hydroxy-2-(Phosphonomethoxy)propyl]-5-azacytosine] | 33 | 22 | 56 | 28 | 40 | 34 | 40
